Binding of CDR-mutated scFvs to a peptide of the spike HR2 region

Reference: Engelhart et al. 2022, doi:10.1038/s41597-022-01779-4. File: FLAb, binding data.

Antigen: PDVDLGDISGINAS, a 14-residue peptide of the SARS-CoV-2 spike HR2 region.

Parent: Ab-14, a human scFv built as VH, the linker GGGGSGGGGSGGGGS, VL. Only the CDRs of the light chain vary.
VH: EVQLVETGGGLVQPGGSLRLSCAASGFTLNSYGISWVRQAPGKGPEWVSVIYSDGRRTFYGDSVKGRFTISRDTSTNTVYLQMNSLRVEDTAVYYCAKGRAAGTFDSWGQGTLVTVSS
VL: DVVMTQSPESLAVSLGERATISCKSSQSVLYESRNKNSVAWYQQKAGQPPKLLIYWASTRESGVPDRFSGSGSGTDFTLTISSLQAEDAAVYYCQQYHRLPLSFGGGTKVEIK

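The parent was found by panning a naive human phage display library on the peptide. AAYL50 was designed without a model: most single CDR substitutions and a random sample of double and triple ones. The scFvs were displayed on barcoded MATa yeast, the peptide on MATalpha yeast. Binding brings cells together so that they mate, and sequencing counts the barcode pairs among the diploids. A regression on co-assayed BCL2-family reference pairs converts the normalised counts of each replicate to an apparent Kd. Each pool was mated in three replicate cultures.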

The parent's light chain CDRs are KSSQSVLYESRNKNSVA, WASTRES, QQYHRLPLS; each variant's own CDRs replace them letter for letter. Values are log10 of the apparent Kd in nM; lower means stronger binding. "ND" means that the variant was in the library but no mating with the target was seen in that replicate; the authors take this as a sign of poor binding, and no number exists.

CDR-L1 | CDR-L2 | CDR-L3 | replicates, log10 nM | signal with controls
KSSQSVLYESRPKNSVA | WASTRES | QQYHTLPLK | 4.40 3.06 4.47 | 1 of 9 (3.81)
KSSQSVLYESRAKNSVA | WASTREV | QQPHRLPLS | ND ND ND | 0 of 9
KASQSVHYESRNKNSVA | CASTRES | QQYHRLPLS | 1.06 1.20 1.10 | 2 of 9 (4.64)
KSSQSVLYESRNRNSVA | WASTREM | QQYHRLPLD | 0.91 1.25 1.20 | 4 of 9 (3.70)
KSSQSVLYESRNKNSVA | WASTRQS | RQYHRLPLS | ND 4.42 ND | 1 of 9 (3.20)
KSSYSVLYESRNNNSVA | WASTRES | CQYHRLPLS | 1.70 1.88 1.60 | 1 of 9 (2.28)
KSSQSVLYESRNKNRVA | WQSTRES | QQYHRLPLS | ND 3.76 ND | 4 of 9 (4.28)
KRSQSVMYESRNKNSQA | WASTRES | QQYHRLPLS | ND ND ND | 0 of 9
LSSQSVLYESRNKNSVR | WASTRES | QQYHRLPHS | 6.30 4.13 ND | 5 of 9 (4.15)
VSSQRVLYESRNKNSVA | WASTRES | QQYHRLCLS | ND ND ND | 1 of 9 (3.03)
KSSQCVLYESRNKNSVA | WASTRES | QQYHRLPLS | 2.00 1.77 2.47 | 2 of 9 (3.10)
KSSQSALYESWNKTSVA | WASTRES | QQYHRLPLS | 2.21 2.01 2.26 | 4 of 9 (4.73)
KASQSVLYESRNKNSVA | WASTRMS | QQYHALPLS | 1.23 1.22 1.28 | 3 of 9 (3.92)
KSSQSVLYHSRNKNSVA | WASTRES | VQYHELPLS | ND 5.74 ND | 5 of 9 (4.44)
KSSQSVLYEFRNHISVA | WASTRES | QQYHRLPLS | ND ND ND | 1 of 9 (3.71)
KSSQSVLYEYRNKNSVA | KASTRES | QQYHRLPLS | 0.85 0.92 1.11 | 2 of 9 (3.22)
KSSQSVLYESRNKQSPA | WASTRES | PQYHRLPLS | ND ND ND | 0 of 9
MSSQSVLYESRNKNSVN | WASTCES | QQYHRLPLS | ND ND ND | 1 of 9 (3.01)
KSSQSELYESRNKNSEA | WASTRES | QQCHRLPLS | ND ND ND | 1 of 9 (3.67)
KSSQSVLYESRNTNSVA | WPSTRES | QRYHRLPLS | 4.52 ND ND | 2 of 9 (3.95)
KSSQSVLNCSRNKNSVA | WASTRES | QQYHRLPKS | 1.47 1.56 1.66 | 5 of 9 (5.27)
KSSQSVLYESRNKGSVA | WASFRES | QQYHNLPLS | 2.28 2.14 2.57 | 2 of 9 (3.44)
KSSCHVLYESRNKNSVA | WASTRES | QQYHRLPSS | ND ND ND | 0 of 9
KSSQSVLYESRFKNSVN | SASTRES | QQYHRLPLS | ND ND ND | 0 of 9
KSSQSVLYESRNPNSVA | WAPTQES | QQYHRLPLS | ND 5.03 5.09 | 2 of 9 (4.27)
KSIQSVLYESRNKNSVA | IASTRSS | QQYHRLPLS | ND ND ND | 0 of 9
KSSQQVLYESRMKNSVA | WASTRES | QQYHELPLS | 1.89 1.43 2.08 | 1 of 9 (3.25)
KSSQSVLYESRNKNSVA | PGSTRES | QQYHRLPLP | ND ND ND | 1 of 9 (2.36)
KSSQSVLYESRNKNIVA | WASTRES | QQYSRLPKS | ND ND ND | 0 of 9
KSFQSVLYESRIKNSVA | WASTRES | QQEHRLPLS | ND 3.19 ND | 1 of 9 (4.22)
KSSQSVLYESRNKNSVA | HALTRES | QQYHFLPLS | 1.86 2.04 2.01 | 3 of 9 (4.38)
KSMQSVLYESRNKNYVA | WASTRES | QQYHRLPLS | ND ND ND | 2 of 9 (4.04)
KSSQSVLYESRNKNSVA | WFSTRED | QQYHRLPDS | ND ND ND | 0 of 9
KSSQSVLYESTNKNSVA | WASTPES | QQYHRLPLS | 2.07 3.10 2.58 | 2 of 9 (4.24)

The 3 strongest on average among those seen in every replicate, once more:

| CDR-L1 | CDR-L2 | CDR-L3 | replicates, log10 nM | signal with controls |
|---|---|---|---|---|
| KSSQSVLYEYRNKNSVA | KASTRES | QQYHRLPLS | 0.85 0.92 1.11 | 2 of 9 (3.22) |
| KSSQSVLYESRNRNSVA | WASTREM | QQYHRLPLD | 0.91 1.25 1.20 | 4 of 9 (3.70) |
| KASQSVHYESRNKNSVA | CASTRES | QQYHRLPLS | 1.06 1.20 1.10 | 2 of 9 (4.64) |

Three control strains display no target. For library AAYL50, 18% of the pairings with them gave a signal, with a median of 4.19 and one signal in twenty below 2.99, so weak values seen in few replicates may be background. For each scFv, signals with the empty controls are counted beside the result, with their mean in brackets. In this assay the parent's reference entry averaged 0.65; its copy inside this library read 1.68.